# According to PMC3401096 (Molecular Biosystems, 2009):
# B1: JMJD2E (Homo sapiens) (protein)
# chain: MKSVHSSPQNTSHTIMTFYPTMEEFADFNTYVAYMESQGAHQAGLAKVIPPKEWKARQMYDDIEDILIATPLQQVTSGQGGVFTQYHKKKKAMRVGQYRRLANSKKYQTPPHQNFADLEQRYWKSHPGNPPIYGADISGSLFEESTKQWNLGHLGTILDLLEQECGVVIEGVNTPYLYFGMWKTTFAWHTEDMDLYSINYLHFGEPKTWYVVPPEHGQHLERLARELFPDISRGCEAFLRHKVALISPTVLKENGIPFNCMTQEAGEFMVTFPYGYHAGFNHGFNCAEAINFATPRWIDYGKMASQCSCGESTVTFSMDPFVRIVQPESYELWKHRQ
# Substrate: O=C([O-])CCC(=O)C(=O)[O-].[Na+].[Na+]
# Assay: purified protein, by the assay type
# Details: other: substrate of JMJD2E, 50 mM HEPES pH 7.5, 0.01% Tween-20, 37.0 °C
protein,measurement,value
B1,Km,14.0 ± 1.8 µM
same,kcat,0.174 ± 0.006 s⁻¹
